{
  "sequences": {"note": "Sequences of proteins named here, by UniProt entry; tags and fusion partners are left off.", "UniProt P15692, whole entry": "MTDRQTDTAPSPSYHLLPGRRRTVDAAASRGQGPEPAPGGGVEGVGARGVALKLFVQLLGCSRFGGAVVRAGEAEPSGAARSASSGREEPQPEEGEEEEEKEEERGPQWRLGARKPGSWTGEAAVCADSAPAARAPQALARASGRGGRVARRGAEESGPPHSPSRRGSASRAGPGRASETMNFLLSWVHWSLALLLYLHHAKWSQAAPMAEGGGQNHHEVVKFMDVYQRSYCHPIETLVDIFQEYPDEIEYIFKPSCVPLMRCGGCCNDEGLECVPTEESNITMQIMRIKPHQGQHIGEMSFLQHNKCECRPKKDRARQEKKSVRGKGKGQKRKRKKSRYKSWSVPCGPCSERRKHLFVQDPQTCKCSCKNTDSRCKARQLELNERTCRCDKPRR"},
  "source": "ChEMBL document CHEMBL5385860",
  "about": "“Antiproliferative, antiangiogenic and apoptotic effect of new hybrids of quinazoline-4(3H)-ones and sulfachloropyridazine” (Eur J Med Chem, 2023)",
  "target": "Vascular endothelial growth factor A, long form (Homo sapiens) (UniProt P15692)",
  "assay": "Inhibition of VEGF-mediated cell migration in HUVEC cells assessed as wound closure at 10 ug/ml measured after 72 hrs by scratch-wound healing assay",
  "format": "cell-based",
  "design": "scale not given: the % may be the effect or the level left",
  "details": "dose 10.0 µg/ml",
  "data": [
    {"smiles": "O=C(CSc1nc2ccccc2c(=O)n1CCc1ccccc1)Nc1ccc(S(=O)(=O)Nc2ccc(Cl)nn2)cc1", "values": [
      {"measurement": "Activity", "result": 58.5, "unit": "%"}
    ]}
  ]
}
